Assay results as given in patent US6043283A, “Tyramine compounds and their neuronal effects” (priority 1997, dated 2000).
Entries after “also recorded” stand apart in the source; their conditions may differ.

Chains of the proteins cited; added tags and fusions are not shown. Lines headed by an entry give the natural chain unless they say otherwise; changes in a name come on top.
UniProt P05067: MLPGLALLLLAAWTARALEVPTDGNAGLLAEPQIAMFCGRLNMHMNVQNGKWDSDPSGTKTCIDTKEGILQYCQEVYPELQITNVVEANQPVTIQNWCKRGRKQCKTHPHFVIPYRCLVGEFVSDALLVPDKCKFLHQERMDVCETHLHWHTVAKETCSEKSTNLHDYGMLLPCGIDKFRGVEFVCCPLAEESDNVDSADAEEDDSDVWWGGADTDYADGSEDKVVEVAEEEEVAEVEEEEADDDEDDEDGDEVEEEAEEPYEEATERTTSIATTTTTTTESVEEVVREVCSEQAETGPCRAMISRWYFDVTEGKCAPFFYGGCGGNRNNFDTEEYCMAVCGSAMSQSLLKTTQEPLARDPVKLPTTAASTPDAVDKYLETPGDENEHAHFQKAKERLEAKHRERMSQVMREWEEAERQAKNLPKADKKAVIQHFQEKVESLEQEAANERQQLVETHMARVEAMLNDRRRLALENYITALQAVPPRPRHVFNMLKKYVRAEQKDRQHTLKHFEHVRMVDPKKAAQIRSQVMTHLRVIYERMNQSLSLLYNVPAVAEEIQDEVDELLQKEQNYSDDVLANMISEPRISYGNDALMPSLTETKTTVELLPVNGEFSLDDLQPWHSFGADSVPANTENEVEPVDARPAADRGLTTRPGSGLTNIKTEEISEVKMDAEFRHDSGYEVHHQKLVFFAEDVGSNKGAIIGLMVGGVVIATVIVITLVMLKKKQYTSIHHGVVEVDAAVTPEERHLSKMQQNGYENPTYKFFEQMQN

Key:
[1] = system: rat microglia; experiment: binding of Aβ-coupled microspheres to microglia; details: 4 hours at 37° C. (72 h in FIG. 23)
[2] = system: microglia; experiment: inhibition of SpheresAβ1-42 binding to microglia; set-up: species or system rat; details: 10 μmoles/l, 4 hours, 37° C.
Protocol: (§1) FIGS. 15A-D depict inhibition of Aβ binding to microglia. […] Only peptides containing residues 13-16 were able to competitively block sphere binding. […] Spheresmal-BSA (which bind to scavenger receptors) or SpheresAβ1-42 were incubated with microglia for 4 hours following pre-treatment of cells with trypsin (5000 units/ml at 37° C. for 60 min followed by inactivation with soybean trypsin inhibitor), with heparinase (heparin lyase EC 4.2.2.7; two consecutive treatments each of 0.01 units/ml for 60 min), or with chondroitinase ABC (chondroitin ABC lyase EC 4.3.3.4; two consecutive treatments each of 0.02 units/ml for 60 min). […] In contrast, scavenger receptor binding of Spheresmal-BSA was blocked by known scavenger receptor ligands such as dextran sulfate (500 μg/ml) or acetylated LDL (ac-LDL, 200 μg/ml). […] Microglia mixed with hippocampal neurons were treated with combinations of β-D-xyloside (1 mm), heparinase (0.02 units/ml), or chondroitinase (0.04 units/ml) and then exposed to plaques. Enzyme treatments alone, particularly that of heparinase brought on some reduction in neurotoxic activity; however, a combination of both enzymatic degradation of heparin sulfate plus competitive blockade of glycosylation by β-D-xyloside completely eliminated plaque activation.
. Each well then received 250,000 SpheresAβ1-42 or Spheresmal-BSA in the presence or absence of Aβ peptides, GAGs, or scavenger receptor ligands. Binding assays were carried out at 37° C. for 4 hours after which coverslips were dipped 10 times in phosphate buffer and fixed with 4% buffered paraformaldehyde. Microsphere adherence to cells was scored at 200 magnification with phase/fluorescence microscopy. Data, expressed as % inhibition of sphere binding, was calculated from total number of spheres per field noted for control cultures receiving spheres only. Values are based upon at least 3 coverslips from 2 independent experiments. […]; 0.5 ml of a 2.5% suspension) were activated with 1% carbodiimide for 4 hr at room temperature. […]

[3] = system: rat microglia / hippocampal neurons; details: mostly 1 μmole/l
[4] = system: Aβ1-42-stimulated microglia; details: for blocking of Aβ1-42 induced microglial neurotoxicity by peptides: 10 μmoles/liter peptide, 1 μmole/liter Aβ1-42
[5] = system: hippocampal neurons; assay type: cell-based, rat; details: absence of microglia
Excerpt: FIGS. 21A-D display toxic actions of synthetic Aβ peptides upon neurons. […]. There is, however, a generalized cytotoxic action by Aβ25-35 at>30 μmoles/l on both neurons (FIG. 21A) and astroglia (FIG. 21B). In the absence of microglia, none of the Aβ peptides (at 1 μmole/l) produce destruction of neurons. […] These observations point to the need to deplete neuron cultures of microglia when assessing mechanisms of Aβ toxicity. […]; FIG. 21E).
. […]; see FIG. 18). […].

[6] = system: scavenger receptor; experiment: inhibition of Spheresmal-BSA binding to microglia; set-up: species or system rat; details: dextran sulfate 500 μg/ml; ac-LDL 200 μg/ml; Aβ1-16 10 μmole/l
Protocol: as §1, with “Enzyme treatments alone, particularly that of heparinase brought on some reduction in neurotoxic activity; however, a combination of both enzymatic degradation of heparin sulfate plus competitive blockade of glycosylation by β-D-xyloside completely eliminated plaque activation.” left out
. […] Microsphere adherence to cells was scored at 200 magnification with phase/fluorescence microscopy. Data, expressed as % inhibition of sphere binding, was calculated from total number of spheres per field noted for control cultures receiving spheres only. […]

[7] = system: plaque-stimulated microglia; experiment: blocking of plaque-induced microglial neurotoxicity; assay type: cell-based, rat; details: FIG. 16C
[8] = system: human microglia; experiment: induction of neuron-killing human microglia; assay type: cell-based; details: 1 μmole/liter synthetic peptides
[9] = assay type: physicochemical; details: chemically defined culture media, 37° C.; Table 2
Excerpt: Solubility of peptides is described for chemicallydefined culture media a […]

## Aβ1-11: Aβ peptide residues 1-11 (DAEFRHDSGYE; Amyloid-beta protein 42; UniProt P05067 672-682, looked up, fragment)
[1]
  binding of peptide-coupled microspheres to microglia: did not
[2]
  inhibition of SpheresAβ1-42 binding by peptides: did not
[3]
  induction of neurotoxic microglia / neuron killing: inactive
[4]
  blocking of Aβ1-42 induced microglial neurotoxicity by peptides: did not

## Aβ1-16: Aβ peptide residues 1-16 (DAEFRHDSGYEVHHQK; Amyloid-beta protein 42; UniProt P05067 672-687, looked up, fragment)
[5]
  direct neurotoxicity without microglia: did not produce neurotoxicity
[1]
  binding of peptide-coupled microspheres to microglia: marked glial binding
[2]
  inhibition of SpheresAβ1-42 binding by peptides: effectively prevented; also recorded: selectively suppressed; also recorded: reduction of binding
[6]
  inhibition of Spheresmal-BSA binding by ligands: did not affect
[7]
  blocking of plaque-induced microglial toxicity by peptides: blocked plaque-induced toxicity in vitro
[4]
  blocking of Aβ1-42 induced microglial neurotoxicity by peptides: blocked neurotoxin production
[4]; read-out: ED50 (blocking of Aβ1-42 induced neurotoxicity), FIG. 16B
  IC50: ~30 nM

## Aβ10-20: Aβ peptide residues 10-20 (YEVHHQKLVFF; Amyloid-beta protein 42; UniProt P05067 681-691, looked up, fragment)
[2]
  inhibition of SpheresAβ1-42 binding by peptides: effectively prevented
[4]
  blocking of Aβ1-42 induced microglial neurotoxicity by peptides: blocked neurotoxin production

## Aβ12-28: Aβ peptide residues 12-28
[8]
  induction of neurotoxic human microglia: inactive
[1]
  binding of peptide-coupled microspheres to microglia: marked glial binding; also recorded: readily bind
[9]
  Solubility: soluble
[3]
  induction of neurotoxic microglia / neuron killing: inactive
